Laboratory results published in the DeepSol protein solubility set.

Test: soluble on expression in E. coli; label from the status in PepcDB or PDB records

Sequence	soluble on expression in E. coli
MGHHHHHHSHMEQANPLRPDGESKGGVLAHLERLETQVSRSRKQSEELQSVQAQEGALGTKIHKLRRLRDELRAVVRHRRASVKACIANVEPNQTVEINEQEALEEKLENVKAILQAYHFTGLSGKLTSRGVCVCISTAFEGNLLDSYFVDLVIQKPLRIHHHSVPVFIPLEEIAAKYLQTNIQHFLFSLCEYLNAYSGRKYQADRLQSDFAALLTGPLQRNPLCNLLSFTYKLDPGGQSFPFCARLLYKDLTATLPTDVTVTCQGVEVLSTSWEEQRASHETLFCTKPLHQVFASFTRKGEKLDMSLVS	not soluble
MSQSKHTEARELMYSGALLFFSHGQQNSAADLSMLVLESLEKAEVEVADELLENLAKVFSLMDPNSPERVTFVSRALKWSSGGSGKLGHPRLHQLLALTLWKEQNYCESRYHFLHSADGEGCANMLVEYSTSRGFRSEVDMFVAQAVLQFLCLKNKSSASVVFTTYTQKHPSIEDGPPFVEPLLNFIWFLLLAVDGGKLTVFTVLCEQYQPSLRRDPMYNEYLDRIGQLFFGVPPKQTSSYGGLLGNLLTSLMGSSEQEDGEESPSDGSPIELD	not soluble
